For experiment [1], the system named is BaF3 cells transformed with the mutated oncogenic fusion protein NPM/ALK carrying the substitution L1196M. As to the kind of experiment: Tritiated thymidine uptake cell proliferation assay, BaF3 NPM/ALK L1196M. In kind it is cell-based. The following applies: for IC50: BaF3 NPM/ALK L1196M cells, 72 h, 3H-thymidine uptake; for Selectivity Index (1196M): parental BaF3 versus BaF3 NPM/ALK L1196M.

Amino acid sequences for entries named in this document (tags omitted). Residues count along the entry.
UniProt Q9UM73, 19-1620 L1196M: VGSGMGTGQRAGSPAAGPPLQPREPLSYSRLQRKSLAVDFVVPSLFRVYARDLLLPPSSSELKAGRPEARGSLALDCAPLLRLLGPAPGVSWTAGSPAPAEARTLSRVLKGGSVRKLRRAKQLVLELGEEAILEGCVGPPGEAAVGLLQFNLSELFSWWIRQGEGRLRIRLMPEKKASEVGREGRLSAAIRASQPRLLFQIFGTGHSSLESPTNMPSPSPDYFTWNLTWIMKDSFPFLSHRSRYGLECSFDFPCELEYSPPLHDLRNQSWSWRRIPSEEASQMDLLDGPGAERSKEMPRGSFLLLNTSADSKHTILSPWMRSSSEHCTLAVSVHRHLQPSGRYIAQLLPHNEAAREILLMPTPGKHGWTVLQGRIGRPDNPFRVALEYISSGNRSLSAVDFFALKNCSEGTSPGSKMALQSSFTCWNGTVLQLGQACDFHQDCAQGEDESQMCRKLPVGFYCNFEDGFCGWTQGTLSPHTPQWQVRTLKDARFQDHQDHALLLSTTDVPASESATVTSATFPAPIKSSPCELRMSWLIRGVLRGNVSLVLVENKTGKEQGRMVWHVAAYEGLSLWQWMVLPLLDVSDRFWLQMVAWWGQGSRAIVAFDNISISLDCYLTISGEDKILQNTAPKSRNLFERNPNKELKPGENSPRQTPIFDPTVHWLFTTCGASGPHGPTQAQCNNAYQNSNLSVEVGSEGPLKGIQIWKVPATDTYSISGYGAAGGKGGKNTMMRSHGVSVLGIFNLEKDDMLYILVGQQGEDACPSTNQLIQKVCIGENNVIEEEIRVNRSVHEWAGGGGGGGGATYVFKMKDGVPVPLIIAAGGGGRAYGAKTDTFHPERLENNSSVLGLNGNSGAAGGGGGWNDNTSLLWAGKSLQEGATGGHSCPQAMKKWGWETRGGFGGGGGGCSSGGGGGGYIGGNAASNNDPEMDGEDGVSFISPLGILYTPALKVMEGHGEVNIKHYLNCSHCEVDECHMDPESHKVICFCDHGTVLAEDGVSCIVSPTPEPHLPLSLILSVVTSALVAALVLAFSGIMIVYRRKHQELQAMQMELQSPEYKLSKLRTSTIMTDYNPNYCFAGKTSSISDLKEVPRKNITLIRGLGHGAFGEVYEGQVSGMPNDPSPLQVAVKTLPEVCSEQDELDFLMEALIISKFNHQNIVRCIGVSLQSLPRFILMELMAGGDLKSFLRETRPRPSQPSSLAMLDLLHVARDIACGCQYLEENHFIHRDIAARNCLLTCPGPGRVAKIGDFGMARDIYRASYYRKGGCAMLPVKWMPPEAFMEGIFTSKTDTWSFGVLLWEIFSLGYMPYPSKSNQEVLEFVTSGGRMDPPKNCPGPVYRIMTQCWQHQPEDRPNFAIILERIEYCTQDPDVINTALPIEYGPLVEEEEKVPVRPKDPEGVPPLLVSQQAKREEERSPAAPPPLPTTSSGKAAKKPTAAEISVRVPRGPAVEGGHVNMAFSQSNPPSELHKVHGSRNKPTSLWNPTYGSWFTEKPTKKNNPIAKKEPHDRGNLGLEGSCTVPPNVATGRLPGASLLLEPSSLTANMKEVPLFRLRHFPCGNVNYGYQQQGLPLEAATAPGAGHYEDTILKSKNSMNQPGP

The target of experiment [2] is recombinant L1196M mutated ALK kinase (rALK) (Homo sapiens (Human), UniProt Q9UM73, L1196M). The experiment is described as follows: ELISA-based in vitro kinase assay, L1196M ALK. In kind it is biochemical. The note with it: 0.3 mM ATP.

Each structure is given as a SMILES string.

On to `Cc1ccc(-c2csc(NC(=O)c3ccc(CN4CCN(C)CC4)cc3)n2)cc1C#Cc1ccc(F)cc1` [Example 9, N-(4-(3-((4-fluorophenyl)ethynyl)-4-methylphenyl)thiazol-2-yl)-4-((4-methylpiperazin-1-yl)methyl)benzamide], for which the IC50 is 0.9 µM in experiment [1] and 8 µM in experiment [2]. Also, in experiment [1], the “Selectivity Index (1196M)” value came to 4.

As for `CN1CCN(C(=O)c2ccc(-c3ccc(C(=O)Nc4nc(-c5cccc(C#Cc6ccccc6OC(F)(F)F)c5)cs4)o3)cc2)CC1` [Example 43, 5-(4-(4-methylpiperazine-1-carbonyl)phenyl)-N-(4-(3-((2-(trifluoromethoxy)phenyl)ethynyl)phenyl)thiazol-2-yl)furan-2-carboxamide], in experiment [1], 0.86 µM corresponded to half-maximal inhibition (IC50) and the “Selectivity Index (1196M)” value was 5. The IC50 in experiment [2] is 1.3 µM.

In the case of `COc1ccc(C#Cc2cc(-c3csc(NC(=O)c4ccc(CN5CCN(C)CC5)cc4)n3)ccc2C)cc1` [Example 6, N-(4-(3-((4-methoxyphenyl)ethynyl)-4-methylphenyl)thiazol-2-yl)-4-((4-methylpiperazin-1-yl)methyl)benzamide], the figures for the IC50 in experiment [1] and in experiment [2] were 2.3 µM and 6.3 µM, respectively. Moreover, the “Selectivity Index (1196M)” value in experiment [1] turned out to be 3.

As for `CC(C)[Si](C#Cc1cccc(-c2csc(NC(=O)c3ccc(CNCCN(C)C)cc3)n2)c1)(C(C)C)C(C)C` [Example 44, 4-(((2-(dimethylamino)ethyl)amino)methyl)-N-(4-(3-((triisopropylsilyl)ethynyl)phenyl)thiazol-2-yl)benzamide], the IC50 in experiment [2] is 65 µM.

In the case of `CN1CCN(C(=O)c2ccc(-c3ccc(C(=O)Nc4nc(-c5cccc(C#Cc6cc(C(F)(F)F)cc(C(F)(F)F)c6)c5)cs4)o3)cc2)CC1` [Example 34, N-(4-(3-((3,5-bis(trifluoromethyl)phenyl)ethynyl)phenyl)thiazol-2-yl)-5-(4-(4-methylpiperazine-1-carbonyl)phenyl)furan-2-carboxamide], the half-inhibitory concentration (IC50) in experiment [1] was 1.7 µM; in experiment [2], more than 100 µM. In addition, in experiment [1], the “Selectivity Index (1196M)” value is 2.

In the case of `O=C(Nc1nc(-c2cccc(C#Cc3cc(C(F)(F)F)cc(C(F)(F)F)c3)c2)cs1)c1ccc(CN2CCOCC2)cc1` [Example 39, N-(4-(3-((3,5-bis(trifluoromethyl)phenyl)ethynyl)phenyl)thiazol-2-yl)-4-(morpholinomethyl)benzamide], in experiment [1], the IC50 worked out at 1.3 µM and the “Selectivity Index (1196M)” value was found to be 26. Also, in experiment [2], the IC50 was 27 µM.
